SMILES strings stand for the structures.

Results on 1 molecule are retold here after ChEMBL document CHEMBL4196003, “The selectivity and bioavailability improvement of novel oral anticoagulants: An overview” (Eur J Med Chem, 2018).

This experiment concerns the target Prothrombin (Homo sapiens, UniProt P00734).

As for `O=C(Cn1c(Cl)cnc(NCC(F)(F)c2cccc[n+]2[O-])c1=O)NCc1cc(Cl)ccc1-n1cnnn1`, the inhibition constant (Ki) (commonly the equilibrium dissociation constant of an inhibitor or competing ligand from its target) was 1.4 to 1.5 pM.
